Results on 1 compound are retold here after paper PMC3257419 (Journal of Medicinal Chemistry, 2011).

In series [1] the test system is Wistar albino rats. The settings on record: determined empirically from previously published results; cited from earlier work.
Series [2] concerns Wistar albino rats. The note with it: CPP-115 20 mg/kg vs 0.5-1 mg/kg; vigabatrin 200 mg/kg vs 100-300 mg/kg.

With `C=CC(N)CCC(=O)O` (centres unmarked) [Vigabatrin, vigabatrin], in the series on Wistar albino rats [1], the “maximum tolerated dose (MTD)” value was 200 mg/kg. Besides, the “safety factor of retinal toxicity dose over the treatment dose” value in the series on Wistar albino rats [2] is on record as “about 1 fold”.
